The nature of experiment [1]: Selectivity ratio of IC50 for inhibition of PI3Kalpha (unknown origin) using PIP2:PS as substrate in presence of ATP to IC50 for inhibition of PI3Kdelta (unknown origin) using PIP2:PS as substrate in presence of ATP.
The nature of experiment [2]: Selectivity ratio of IC50 for inhibition of PI3Kgamma (unknown origin) using PIP2:PS as substrate in presence of ATP to IC50 for inhibition of PI3Kdelta (unknown origin) using PIP2:PS as substrate in presence of ATP.
The nature of experiment [3]: Selectivity ratio of IC50 for inhibition of PI3Kbeta (unknown origin) using PIP2:PS as substrate in presence of ATP to IC50 for inhibition of PI3Kdelta (unknown origin) using PIP2:PS as substrate in presence of ATP.

Regarding `COc1ccc(-c2nn([C@H](C)c3nn(-c4cccnc4)c4cc(Cl)ccc34)c3ncnc(N)c23)cc1F`, the Ratio IC50 in experiment [1], in experiment [2] and in experiment [3] was above 87 throughout.

Regarding `COc1ccc(-c2nn(C(C)c3nn(-c4cccnc4)c4cc(Cl)ccc34)c3ncnc(N)c23)cc1F` (stereo not drawn), the Ratio IC50 is 5200 in experiment [1], above 6250 in experiment [2] and 1950 in experiment [3].

In the case of `CC(c1nn(-c2cccnc2)c2cc(Cl)ccc12)n1nc(-c2ccc(O)c(F)c2)c2c(N)ncnc21` (stereo not drawn), the Ratio IC50 turned out to be 616 in experiment [1], 562 in experiment [2] and 878 in experiment [3].

`CC(c1nn(-c2cccnc2)c2cc(Cl)ccc12)n1nc(-c2ccc3c(c2)OCCO3)c2c(N)ncnc21` (stereo not drawn): the values for the Ratio IC50 in experiment [1], in experiment [2] and in experiment [3] were 503, 574 and 42, respectively.

Consider `COc1ccc(-c2nn(C(C)c3nn(-c4cccnc4)c4cc(Cl)ccc34)c3ncnc(N)c23)cc1` (stereo not drawn), for which the figures for the Ratio IC50 in experiment [1], in experiment [2] and in experiment [3] were 931, 1390 and 2050, respectively.

Take `COc1ccc(-c2nn([C@@H](C)c3nn(-c4cccnc4)c4cc(Cl)ccc34)c3ncnc(N)c23)cc1F`: the Ratio IC50 in experiment [1] is 132; in experiment [2], 2090; in experiment [3] it was 2970.

These data come from ChEMBL document CHEMBL5365433 (J Med Chem, 2023).
